Assay results published in paper PMC3971408, “Inhibition of triosephosphate isomerase by phosphoenolpyruvate in the feedback-regulation of glycolysis” (Open Biology, 2014).

Substrate: O=CC(O)COP(=O)(O)O
Experiment: purified protein
Conditions: catalytic pocket

| Protein | Km (direct contact with residue […]) [µM] | Km [µM] |
| --- | --- | --- |
| human TPIIle170Thr (Homo sapiens; I171T) (protein) APSRKFFVGGNWKMNGRKQSLGELIGTLNAAKVPADTEVVCAPPTAYIDFARQKLDPKIAVAAQNCYKVTNGAFTGEISPGMIKDCGATWVVLGHSERRHVFGESDELIGQKVAHALAEGLGVIACIGEKLDEREAGITEKVVFEQTKVIADNVKDWSKVVLAYEPVWATGTGKTATPQQAQEVHEKLRGWLKSNVSDAVAQSTRIIYGGSVTGATCKELASQPDVDGFLVGGASLKPEFVDIINAKQ | 303 | – |
| human triosephosphate isomerase (TPI) (Homo sapiens) (protein) APSRKFFVGGNWKMNGRKQSLGELIGTLNAAKVPADTEVVCAPPTAYIDFARQKLDPKIAVAAQNCYKVTNGAFTGEISPGMIKDCGATWVVLGHSERRHVFGESDELIGQKVAHALAEGLGVIACIGEKLDEREAGITEKVVFEQTKVIADNVKDWSKVVLAYEPVWAIGTGKTATPQQAQEVHEKLRGWLKSNVSDAVAQSTRIIYGGSVTGATCKELASQPDVDGFLVGGASLKPEFVDIINAKQ | – | 1373 |
| human TPIIle170Val (Homo sapiens; I171V) (protein) APSRKFFVGGNWKMNGRKQSLGELIGTLNAAKVPADTEVVCAPPTAYIDFARQKLDPKIAVAAQNCYKVTNGAFTGEISPGMIKDCGATWVVLGHSERRHVFGESDELIGQKVAHALAEGLGVIACIGEKLDEREAGITEKVVFEQTKVIADNVKDWSKVVLAYEPVWAVGTGKTATPQQAQEVHEKLRGWLKSNVSDAVAQSTRIIYGGSVTGATCKELASQPDVDGFLVGGASLKPEFVDIINAKQ | – | 687 |
